According to PMC8523698, “Preclinical characterization of an intravenous coronavirus 3CL protease inhibitor for the potential treatment of COVID19” (Nature Communications, 2021):
Several values for one entry are separate records, joined by “and”; a condition that tells them apart may be missing. Equal entries are not always repeated. Where two headings read alike, the source gives them in different places.

The chains behind the UniProt entries cited, without tags or fusion partners. Residues count along the entry.
UniProt Q86VL8, 1-566 isoform Q86VL8-3: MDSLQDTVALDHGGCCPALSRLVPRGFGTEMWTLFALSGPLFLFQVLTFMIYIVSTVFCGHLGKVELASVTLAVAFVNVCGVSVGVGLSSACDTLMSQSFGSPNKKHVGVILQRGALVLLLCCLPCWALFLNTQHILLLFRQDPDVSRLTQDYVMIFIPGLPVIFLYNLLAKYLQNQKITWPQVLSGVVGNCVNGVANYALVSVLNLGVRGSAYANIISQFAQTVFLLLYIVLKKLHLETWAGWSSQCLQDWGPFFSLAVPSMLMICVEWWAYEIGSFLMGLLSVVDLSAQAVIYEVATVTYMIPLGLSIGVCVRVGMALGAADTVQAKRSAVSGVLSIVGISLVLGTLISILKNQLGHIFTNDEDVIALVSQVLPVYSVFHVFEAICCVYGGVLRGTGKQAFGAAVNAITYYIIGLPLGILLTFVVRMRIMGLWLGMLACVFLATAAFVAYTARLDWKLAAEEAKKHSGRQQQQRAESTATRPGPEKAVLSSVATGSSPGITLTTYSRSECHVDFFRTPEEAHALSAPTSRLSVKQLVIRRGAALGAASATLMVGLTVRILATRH

Legend:
[1] = target: T1, OAT3 (Homo sapiens, UniProt Q8TCC7); test: Transporter inhibition using transfected HEK293 cells; settings: uptake of [3H]-ES by OAT3; control inhibitor 1000 uM
T1 sequence (Q8TCC7 1-542): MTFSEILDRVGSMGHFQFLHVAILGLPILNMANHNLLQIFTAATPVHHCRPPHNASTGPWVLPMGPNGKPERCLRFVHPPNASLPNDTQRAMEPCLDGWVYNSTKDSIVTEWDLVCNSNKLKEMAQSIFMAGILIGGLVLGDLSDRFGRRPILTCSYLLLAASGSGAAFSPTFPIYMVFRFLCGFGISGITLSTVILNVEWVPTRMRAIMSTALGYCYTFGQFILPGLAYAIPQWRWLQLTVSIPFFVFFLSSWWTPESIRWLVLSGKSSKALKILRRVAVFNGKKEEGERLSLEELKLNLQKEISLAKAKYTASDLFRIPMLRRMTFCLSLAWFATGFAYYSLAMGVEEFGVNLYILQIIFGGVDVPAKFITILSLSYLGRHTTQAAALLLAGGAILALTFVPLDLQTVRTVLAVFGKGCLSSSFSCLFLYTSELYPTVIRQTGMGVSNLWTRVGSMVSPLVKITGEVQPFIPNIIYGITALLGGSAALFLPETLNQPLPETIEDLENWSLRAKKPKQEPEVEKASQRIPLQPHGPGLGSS

[2] = target: T2, OATP1B3 (Homo sapiens, UniProt Q9NPD5); test: as above; settings: uptake of Rosuvastatin by OATP1B3; control inhibitor 20 uM
T2 sequence (Q9NPD5 1-702): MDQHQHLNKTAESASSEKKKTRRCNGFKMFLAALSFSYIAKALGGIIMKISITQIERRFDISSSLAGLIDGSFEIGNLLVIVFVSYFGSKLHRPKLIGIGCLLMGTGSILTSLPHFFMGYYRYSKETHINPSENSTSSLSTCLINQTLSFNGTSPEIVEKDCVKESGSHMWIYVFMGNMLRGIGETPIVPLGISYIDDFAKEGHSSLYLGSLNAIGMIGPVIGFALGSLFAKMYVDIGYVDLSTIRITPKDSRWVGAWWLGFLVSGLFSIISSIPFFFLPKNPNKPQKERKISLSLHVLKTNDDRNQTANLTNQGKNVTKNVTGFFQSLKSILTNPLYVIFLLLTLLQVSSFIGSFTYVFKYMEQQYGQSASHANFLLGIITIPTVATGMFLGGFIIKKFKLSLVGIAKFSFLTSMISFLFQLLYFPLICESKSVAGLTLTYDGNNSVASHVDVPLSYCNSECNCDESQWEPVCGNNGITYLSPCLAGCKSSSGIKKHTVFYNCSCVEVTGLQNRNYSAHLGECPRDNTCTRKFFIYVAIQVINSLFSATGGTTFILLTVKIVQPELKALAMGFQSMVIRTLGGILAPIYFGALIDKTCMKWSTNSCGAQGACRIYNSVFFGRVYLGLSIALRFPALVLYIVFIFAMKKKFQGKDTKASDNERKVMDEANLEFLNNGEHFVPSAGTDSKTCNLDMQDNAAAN

[3] = target: T3, OATP1B1 (Homo sapiens, UniProt Q9Y6L6); test: as above; settings: uptake of Rosuvastatin by OATP1B1; control inhibitor 20 uM
T3 sequence (Q9Y6L6 1-691): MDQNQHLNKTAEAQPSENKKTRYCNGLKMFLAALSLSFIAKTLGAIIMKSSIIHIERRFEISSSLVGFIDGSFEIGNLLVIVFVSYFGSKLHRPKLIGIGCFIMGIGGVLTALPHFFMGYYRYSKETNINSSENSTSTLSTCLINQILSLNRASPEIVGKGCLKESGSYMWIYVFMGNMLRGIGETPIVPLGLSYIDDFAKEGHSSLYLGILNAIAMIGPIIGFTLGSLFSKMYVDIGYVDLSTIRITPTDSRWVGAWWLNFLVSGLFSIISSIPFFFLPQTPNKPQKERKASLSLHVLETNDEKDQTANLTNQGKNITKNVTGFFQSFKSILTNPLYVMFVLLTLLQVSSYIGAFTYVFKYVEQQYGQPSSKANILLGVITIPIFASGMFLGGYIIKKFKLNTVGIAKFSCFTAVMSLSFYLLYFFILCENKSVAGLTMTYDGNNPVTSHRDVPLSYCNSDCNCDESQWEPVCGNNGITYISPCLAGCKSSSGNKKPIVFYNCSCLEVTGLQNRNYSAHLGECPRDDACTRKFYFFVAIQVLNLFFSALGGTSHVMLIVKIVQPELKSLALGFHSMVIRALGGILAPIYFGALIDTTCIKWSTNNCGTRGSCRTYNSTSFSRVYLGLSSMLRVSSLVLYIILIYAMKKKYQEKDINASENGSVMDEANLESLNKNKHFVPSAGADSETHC

[4] = test system: SARS-CoV-2 (strain USA-WA1/2020); format: cell-based; settings: replicate plates
[5] = test system: SARS-CoV-2 (strain USA-WA1/2020); test: HeLa-ACE2 high-content imaging antiviral assay; settings: read-out: average EC90; compound alone
[6] = target: T4, MATE1 (Homo sapiens, UniProt Q96FL8); test: Transporter inhibition using transfected HEK293 cells; settings: uptake of [14C]-metformin by MATE1; control inhibitor concentration 500 uM; single replicates
T4 sequence (Q96FL8 1-570): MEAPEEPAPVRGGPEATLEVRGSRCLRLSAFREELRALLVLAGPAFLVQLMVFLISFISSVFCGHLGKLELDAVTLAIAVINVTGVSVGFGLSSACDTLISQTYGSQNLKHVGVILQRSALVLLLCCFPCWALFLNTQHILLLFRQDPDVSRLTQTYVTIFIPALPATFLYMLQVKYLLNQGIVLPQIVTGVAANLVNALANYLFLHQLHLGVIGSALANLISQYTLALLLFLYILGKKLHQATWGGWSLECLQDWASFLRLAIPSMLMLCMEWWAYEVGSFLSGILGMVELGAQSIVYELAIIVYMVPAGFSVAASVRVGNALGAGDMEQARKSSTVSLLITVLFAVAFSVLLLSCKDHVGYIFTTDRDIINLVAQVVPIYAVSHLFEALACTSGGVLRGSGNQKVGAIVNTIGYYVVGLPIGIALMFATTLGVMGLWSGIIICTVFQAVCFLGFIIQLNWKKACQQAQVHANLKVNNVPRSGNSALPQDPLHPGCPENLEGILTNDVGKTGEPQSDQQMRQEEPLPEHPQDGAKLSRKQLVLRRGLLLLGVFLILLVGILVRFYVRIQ

[7] = target: T5, MATE2K (Homo sapiens, UniProt Q86VL8); test: as above; format: in vitro ADME; settings: uptake of [14C]-metformin by MATE2K; control inhibitor concentration 500 uM; single replicates
T5 construct: expressed in transfected cells; host or cells: HEK293

Compound: CCCN(CCC)S(=O)(=O)c1ccc(C(=O)O)cc1 [Probenecid]
- % Uptake Activity [1]: -0.18% and 0.11% and 0.06%
- CPM [1]: 234 CPM and 251 CPM and 248 CPM

Compound: CO[C@H]1/C=C/O[C@@]2(C)Oc3c(C)c(O)c4c(O)c(cc(O)c4c3C2=O)NC(=O)/C(C)=C\C=C\[C@H](C)[C@H](O)[C@@H](C)[C@@H](O)[C@@H](C)[C@H](OC(C)=O)[C@@H]1C [Rifamycin SV]
- % Uptake Activity [2]: 0.0321% and 0.128% and -0.16%
- % Uptake Activity [3]: 0.364% and 0.07% and -0.434%

Compound: CCC(CC)COC(=O)[C@H](C)N[P@](=O)(OC[C@H]1O[C@@](C#N)(c2ccc3c(N)ncnn23)[C@H](O)[C@@H]1O)Oc1ccccc1 [REM]
- Activity (normalized well value, Figure 3B combination matrix) ([4]; PF-00835231 0 + REM 0.02375 (REM alone)): -6.552 and -5.992 and -10.5278
- Activity (normalized well value, Figure 3B combination matrix) ([4]; PF-00835231 0 + REM 0.095 (REM alone)): 80.284 and 72.4309 and 68.9765
- Activity (normalized well value, Figure 3B combination matrix) ([4]; PF-00835231 0 + REM 0.19 (REM alone)): 98.728 and 100.165

Compound: CCC(CC)COC(=O)[C@H](C)N[P@](=O)(OC[C@H]1O[C@@](C#N)(c2ccc3c(N)ncnn23)[C@H](O)[C@@H]1O)Oc1ccccc1 [remdesivir, reference compound]
- EC90 [5]: 170 nM

Compound: CN/C(=N/CCSCc1nc[nH]c1C)NC#N [Cimetidine]
- % Uptake Activity [6]: 0.628% (2×) and -0.452% (2×) and -0.176% (2×)
- % Uptake Activity [7]: 0.418% (2×) and -0.835% (2×)
